We go through 1 substance from PMC5813187, “Enhanced Permeability and Binding Activity of Isobutylene‐Grafted Peptides” (Chembiochem, 2017).

By UniProt entry, the sequences of proteins in these tests, tags left out.
UniProt P30874, whole entry, species assumed: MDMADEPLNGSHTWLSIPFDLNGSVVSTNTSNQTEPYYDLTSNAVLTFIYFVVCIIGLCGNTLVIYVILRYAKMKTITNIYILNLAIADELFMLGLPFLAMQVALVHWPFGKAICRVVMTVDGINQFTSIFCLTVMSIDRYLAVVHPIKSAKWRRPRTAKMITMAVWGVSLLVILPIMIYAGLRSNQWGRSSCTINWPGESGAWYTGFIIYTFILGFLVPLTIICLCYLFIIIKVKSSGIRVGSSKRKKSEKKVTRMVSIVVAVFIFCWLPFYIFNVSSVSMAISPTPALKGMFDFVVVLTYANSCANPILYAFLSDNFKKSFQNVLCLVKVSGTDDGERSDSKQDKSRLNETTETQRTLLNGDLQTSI

In the test the target is somatostatin receptor type 2 (SSTR2) (Homo sapiens, UniProt P30874). As to the kind of experiment: Tryptophan fluorescence spectroscopy, binding to SSTR2. The settings on record: 1 µM SSTR2, peptide 0.1 to 7 µM, 25 mM Tris, 150 mM NaCl, pH 7.5, 25 °C, excitation 280 nm, emission peak shift 328 to 338 nm.

Regarding somatostatin [native somatostatin], the “minimum concentration required to achieve saturation of SSTR2” value was “at least 5.5 μM”.
